Columns and labels:
[1] = biological target: T1, ABL1-N-HiBiT kinase domain (Homo sapiens, UniProt P00519); test: ABL1 peptide phosphorylation, Kinase-Glo Plus (KGP) assay, ABL1-N-HiBiT
[2] = biological target: T1, ABL1-N-HiBiT kinase domain; details: for EC50: read-out: SDR Ave SDR50
PKA-N-HiBiT = PKA-N-HiBiT (Homo sapiens, UniProt P17612)

TAE-684 was tested, and the “ABL1 KGP pIC50” value [1] was 4.79, the IC50 ([1]; read-out: ABL1 KGP Ave IC50) was 17100 nM and the “ABL1 SDR pSDR50” value [2] was 6.11. For the same substance, the “SDR Ave Max Response” value [2] was 92.26 and the EC50 [2] was 770 nM.
In the case of PHA-665752, the “SDR Ave Max Response” value (PKA-N-HiBiT) is reported as -38.24, the “ABL1 SDR pSDR50” value [2] is reported as 5.72 and the “SDR Ave Max Response” value [2] is reported as 26.87. For the same substance, the EC50 [2] was 1920 nM.

Source: PMC12064818, “A general assay platform to study protein pharmacology using ligand-dependent structural dynamics” (Nature Communications, 2025)
